The values that follow are results of earlier work, collected in PMC4564290 (Journal of Molecular and Cellular Cardiology, 2015).

Conditions in all cases: cited from earlier work
One series concerns the target F656A hERG (Homo sapiens, UniProt Q12809, F656A).
The next series addresses Y652A hERG (Homo sapiens, UniProt Q12809, Y652A). Further details: expressed in transfected cells.
For a further series, the target named is T623A hERG (Homo sapiens, UniProt Q12809, T623A). Also noted: expressed in transfected cells; host or cells: HEK cells; method as in PMID 11005845.
Another series has as its target V625A hERG (Homo sapiens, UniProt Q12809, V625A). Further details: expressed in transfected cells; host or cells: HEK cells; method as in PMID 11005845.
The next series concerns the target G648A hERG (Homo sapiens, UniProt Q12809, G648A). Also noted: expressed in transfected cells; host or cells: HEK cells; method as in PMID 11005845.

Consider `CS(=O)(=O)Nc1ccc2c(c1)[C@H](O)CC1(CCN([C@@H]3CCc4cc(C#N)ccc4C3)CC1)O2` [MK499], for which the “Increase in IhERG IC50 with F656A” value on F656A hERG is 650 fold. The “Increase in IhERG IC50 with Y652A” value at Y652A hERG is on record as 94 fold. The “Increase in IhERG IC50 with T623A” value at T623A hERG is 5 fold. Moreover, at V625A hERG, the “Increase in IhERG IC50 with V625A” value is 50 fold. Further, the “IC50 with G648A relative to WT IhERG” value at G648A hERG was 55 fold.
